{"source": "patent US20110224276A1", "about": "“OPTICAL ISOMER OF PHENYLPROPIONIC ACID AND ITS MEDICINAL USE” (priority 2008, published 2011)", "key": {"SD rats [1]": {"tested_on": "SD rats", "test": "long-term toxicity test in SD rats, thirteen-week consecutive intragastric administration and four-week convalescence", "details": "based on nontoxic dosage, 13-week ig, listed as R:S=6:1 mixture", "method": "2. […] The tested samples are formulated into suspensions by milling with 0.5% CMC—Na; intragastric administration (10 ml/kg) every day for consecutive 13 weeks; on each day, after administration, the general conditions of the animals are observed, and weight and amount of ingestion are determined once every week. In 24 hours after the last administration, half of rats in each tested group are fasted overnight, blood samples are withdrawn via femoral arteries, and the rats are dissected, and the indexes of blood cytology and biochemics, gloss anatomy and histopathological examination are preformed. The administration to remaining half rats is stopped, and the convalescence is observed; general conditions are observed and weight and amount of ingestion are determined once every week. After 4 weeks, the observation is complete, and the half of rats in each tested group are fasted overnight, blood samples are withdrawn via femoral arteries, and the rats are dissected, and the indexes of blood cytology and biochemics, gloss anatomy and histopathological examination are preformed."}, "SD rats [2]": {"tested_on": "SD rats", "test": "toxicity test in SD rats, four-week consecutive intragastric administration", "details": "based on nontoxic dosage, four-week ig", "method": "2. […] The tested samples are formulated into suspensions by milling with 0.5% CMC—Na; intragastric administration every day (10 ml/kg) for consecutive 4 weeks; on each day, after administration, the general conditions of the animals are observed, and weight and amount of ingestion are determined once every week. In 24 hours after the last administration, the rats are fasted overnight, blood samples are withdrawn via femoral arteries, and the rats are dissected, and the indexes of blood cytology and biochemics, gloss anatomy and histopathological examination are preformed."}}, "note": "Entries after “also recorded” stand apart in the source; their conditions may differ."}
{"substance": "R-10,11-dihydro-alpha-methyl-10-oxo-dibenzo[b,f]tiazem-2-acetic acid:S-10,11-dihydro-alpha-methyl-10-oxo-dibenzo[b,f]tiazem-2-acetic acid (6:1) [S:R = 1:6]", "values": [{"measurement": "safety compared with RS-Zaltoprofen", "setting": "SD rats [1]", "result": "four times or more; also recorded: more than four times greater"}, {"measurement": "safety compared with RS-Zaltoprofen", "setting": "SD rats [2]; listed as R:S=6:1", "result": "four times or more"}, {"measurement": "safety compared with RS-Zaltoprofen", "setting": "SD rats [2]; listed as R:S=6:1 mixture", "result": "more than four times greater"}]}
